Experimental data from patent US20160168185A1 (BAYLOR COLLEGE OF MEDICINE, priority 2013, published 2016).

Assay: in vitro
Conditions: human, pooled human liver microsomes

microsomal CLint at 1.98 µM: 24 µL/min/mg
SMILES: CC(C)N(CCCNC(=O)Nc1ccc(C(C)(C)C)cc1)C[C@H]1O[C@@H](n2cnc3c(N)ncnc32)[C@H](O)[C@@H]1O [SYC-522]
